Test results reported in patent US8829203B2, “3′,6-substituted indirubins and their biological applications” (Centre National de la Recherche Scientifique (CNRS), priority 2008, dated 2014).

Protein sequences, listed by entry. Tags and fused reporters are not part of them.
UniProt Q00535, whole entry: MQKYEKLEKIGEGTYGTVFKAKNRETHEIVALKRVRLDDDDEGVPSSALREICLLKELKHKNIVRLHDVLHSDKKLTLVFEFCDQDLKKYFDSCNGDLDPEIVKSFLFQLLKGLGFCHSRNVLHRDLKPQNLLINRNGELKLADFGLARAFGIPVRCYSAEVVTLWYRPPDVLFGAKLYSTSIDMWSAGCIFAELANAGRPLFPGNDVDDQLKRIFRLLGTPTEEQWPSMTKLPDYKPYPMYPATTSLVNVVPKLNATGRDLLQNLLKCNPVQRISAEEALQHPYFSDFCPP

Assays:
[1] = target: GSK-3α/β; test: GSK-3α/β kinase assay (GS-1 substrate, 15 μM ATP); assay type: biochemical, porcine; details: 30° C., 30 min, read-out: GSK3 IC50
[2] = target: CDK1/cyclin B; test: CDK1/cyclin B kinase assay (histone H1, 15 μM ATP); assay type: biochemical, starfish (Marthasterias glacialis); details: 30° C., 30 min
[3] = target: CDK5/p25 (Homo sapiens, UniProt Q00535); test: CDK5/p25 kinase assay (histone H1, 15 μM ATP); assay type: biochemical; details: 30° C., 30 min

Row | SMILES | IC50 [2] | other results
1 | O=C1Nc2cc(Br)ccc2/C1=C1/Nc2ccccc2/C1=N\OCCN1CCNCC1 [Cpd 22, (2′Z-3′E)-6-Bromoindirubin-3′-[O-(2-piperazine-1-ylethyl)oxime]Dihydrochloride] | – | IC50 [1]: 1.3 nM
2 | O=C1Nc2cc(Br)ccc2/C1=C1/Nc2ccccc2/C1=N\OCCN1CCN(CCO)CC1 [Cpd 13] | 600 nM | –
3 | O=C1Nc2cc(Br)ccc2/C1=C1/Nc2ccccc2/C1=N\OCCN(CCO)CCO [Cpd 20] | 1000 nM | –
4 | O=C1Nc2cc(Br)ccc2/C1=C1/Nc2ccccc2/C1=N\OCCN1CCN(CCO)CC1 [Cpd 24] | 400 nM | –
5 | CN(C)CCO/N=C1/C(=C2/C(=O)Nc3cc(Br)ccc32)Nc2ccccc21 [Cpd 5, (2′Z-3′E)-6-Bromoindirubin-3′-[O-(2-dimethylaminoethyl)-oxime]] | 490 nM | –
6 | CN(C)CCO/N=C1/C(=C2/C(=O)Nc3cc(Br)ccc32)Nc2ccccc21 [Cpd 16, (2′Z-3′)-6-Bromoindirubin-3′-[O-(2-dimethylaminoethyl)oxime]Hydrochloride] | – | IC50 [3]: 53 nM
7 | O=C1Nc2cc(Br)ccc2/C1=C1/Nc2ccccc2/C1=N\OCCN1CCNCC1 [Cpd 11, (2′Z-3′E)-6-Bromoindirubin-3′-[O-(2-piperazine-1-ylethyl)oxime]] | – | IC50 [1]: 3.3 nM
8 | O=C1Nc2cc(Br)ccc2/C1=C1/Nc2ccccc2/C1=N\OCCN(CCO)CCO [Cpd 9] | 600 nM | –

Structures can show the parent of a compound that is named as a salt.
